Target: RAC-beta serine/threonine-protein kinase (Homo sapiens, UniProt P31751)
Assay: Biochemical assay (AKT2); call rule not given here

Protein sequences, listed by entry. Tags and fused reporters are not part of them. Lines headed by an entry give the natural chain unless they say otherwise; changes in a name come on top.
UniProt P31751: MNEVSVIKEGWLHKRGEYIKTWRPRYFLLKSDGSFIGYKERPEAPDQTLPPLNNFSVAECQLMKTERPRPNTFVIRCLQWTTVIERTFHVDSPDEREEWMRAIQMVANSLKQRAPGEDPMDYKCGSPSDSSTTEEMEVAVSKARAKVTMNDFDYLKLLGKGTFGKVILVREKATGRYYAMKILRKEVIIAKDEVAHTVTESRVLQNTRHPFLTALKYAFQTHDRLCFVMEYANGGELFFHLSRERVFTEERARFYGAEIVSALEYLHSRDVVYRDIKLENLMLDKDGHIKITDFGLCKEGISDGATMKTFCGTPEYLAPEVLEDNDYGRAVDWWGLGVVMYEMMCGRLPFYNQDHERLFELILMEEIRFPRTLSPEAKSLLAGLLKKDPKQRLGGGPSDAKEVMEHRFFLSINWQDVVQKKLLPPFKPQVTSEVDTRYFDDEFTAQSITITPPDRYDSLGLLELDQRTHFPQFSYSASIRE

IC50: 3.84 µM (not active)
Structure (SMILES): NC1(c2ccc(-c3nc4c(O)ccnn4c3-c3ccccc3)cc2)CCC1
